“Also recorded” adds a separate entry of the source. Read-outs that look alike come from different tables or passages of the source.
How the values were obtained:
human ghrelin receptor [1] = biological target: T1, human ghrelin receptor (Homo sapiens, UniProt Q92847); experiment: cell-based
human ghrelin receptor [2] = biological target: T1, human ghrelin receptor; conditions: 10^-6, 10^-7 and 10^-8 M of the peptide
human ghrelin receptor [3] = biological target: T1, human ghrelin receptor; experiment: Inverse agonism on basal, constitutive signalling measured by inositol phosphate turnover in transiently transfected COS-7 cells; type: cell-based; conditions: wild-type ghrelin receptor
Protocol: Cells were transfected with Lipofectamine 2000 (Life Technologies).
Cells were washed twice in buffer, 20 mM HEPES, pH 7.4, supplemented with 140 mM NaCl, 5 mM KCl, 1 mM MgSO4, 1 mM CaCl2, 10 mM glucose, 0.05% (w/v) bovine serum; and were incubated in 0.5 ml buffer supplemented with 10 mM LiCl at 37 °C. for 30 min. […] Determinations were made in duplicates.

Sequences of proteins named here, by UniProt entry; tags and fusion partners are left off.
UniProt Q92847, whole entry: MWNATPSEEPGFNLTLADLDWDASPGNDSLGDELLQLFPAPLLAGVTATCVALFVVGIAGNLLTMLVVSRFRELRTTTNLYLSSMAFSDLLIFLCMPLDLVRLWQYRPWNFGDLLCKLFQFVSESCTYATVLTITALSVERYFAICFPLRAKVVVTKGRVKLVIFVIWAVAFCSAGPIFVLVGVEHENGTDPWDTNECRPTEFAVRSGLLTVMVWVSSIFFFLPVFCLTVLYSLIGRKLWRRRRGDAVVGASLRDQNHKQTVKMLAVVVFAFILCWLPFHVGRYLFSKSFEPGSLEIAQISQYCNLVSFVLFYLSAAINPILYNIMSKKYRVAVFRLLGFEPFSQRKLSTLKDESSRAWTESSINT

EC50 (human ghrelin receptor [1]): 0.63 µM
IC50 (human ghrelin receptor [1]): 0.63 ± 0.02 µM
IC50 (human ghrelin receptor [3]; no agonist, COS-7, IP turnover, read-out: IC50 for inverse agonism, inhibition of the basal, constitutive signalling): 0.0052 ± 0.0007 µM
SMILES: CC(C)C[C@H](NC(=O)[C@H](CC(C)C)NC(=O)[C@@H](Cc1c[nH]c2ccccc12)NC(=O)[C@H](Cc1ccccc1)NC(=O)[C@@H](Cc1c[nH]c2ccccc12)NC(=O)[C@H](CCC(N)=O)NC(=O)[C@@H](Cc1ccccc1)NC(=O)[C@@H]1CCCN1C(=O)[C@H](CCCCN)NC(=O)[C@@H]1CCCN1C(=O)[C@H](N)CCCNC(=N)N)C(N)=O [[D-Arg^1, D-Phe^5, D-Trp^7,9, Leu^11]-Substance P]
Schild-like analysis: shift of the dose-response curve for ghrelin at low doses that inhibit basal signalling (human ghrelin receptor [2]): do not shift the dose-response curve for ghrelin to the right
Schild-like analysis: shift of the dose-response curve for ghrelin at low doses that inhibit basal signalling (human ghrelin receptor [2]; listed as SP-analog): without shifting the dose-response-curve for ghrelin to the right
efficacy as inverse agonist (in words) (human ghrelin receptor [3]; absence of ghrelin): high efficacy, full inverse agonist; also recorded: potent and highly efficacious inverse agonist

Reference: patent publication US20060025344A1, “Ghrelin receptor inverse agonists for regulation of feeding behaviors” (7TM Pharma A/S, priority 2002, published 2006)
